Laboratory results taken from paper PMC5894102 (Journal of medicinal chemistry, 2017).

Key:
MiaPaCa-2 cells [1] = conditions: Figure 5C
MiaPaCa-2 cells [2] = assay: cells; conditions: Homo sapiens, MIA PaCa-2, 2 h, read-out: MiaPaCa-2 cells Lactate inh. IC50 ± SD
A673 cells [3] = conditions: Figure 5D
in vitro [4] = conditions: human, MiaPaCa-2 cells
in vitro [5] = conditions: human, A673 cells
A673 cells [6] = assay: cells; conditions: Homo sapiens
[7] = A673, read-out: inhibition of lactate production IC50

| Compound | long-term growth inhibition activity (AUC analysis) (MiaPaCa-2 cells [1]) | long-term growth inhibition activity (AUC analysis) (A673 cells [3]) | IC50 at 48 h (in vitro [4]) [µM] | IC50 at 48 h (in vitro [5]) [µM] | IC50 (A673 cells [6]; [7]) [µM] | other results |
| --- | --- | --- | --- | --- | --- | --- |
| O=C1N[C@](c2ccc(N3CCOCC3)cc2)(c2ccsc2)CC(O)=C1Sc1ccccc1Cl [Analog 3] | single digit μM | single digit μM | – | – | – | IC50 (MiaPaCa-2 cells [2]): 0.877 ± 0.059 µM |
| NS(=O)(=O)c1ccc(Cc2cn(-c3nc(C(=O)O)cs3)nc2-c2ccccc2)cc1 [Analog 43] | – | – | > 57 | > 57 | – | – |
| Nc1c(Cc2ccc(S(N)(=O)=O)cc2)c(-c2cccc(-c3ccccc3)c2)nn1-c1nc(C(=O)O)cs1 [Analog 56] | – | – | > 57 | > 57 | – | – |
| NS(=O)(=O)c1ccc(Cc2c(-c3ccccc3)nn(-c3nc(C(=O)O)cs3)c2C2CC2)cc1 [Analog 58] | – | – | > 57 | > 57 | – | – |
| NS(=O)(=O)c1ccc(Oc2c(-c3cccc(-c4ccccc4)c3)nn(-c3nc(C(=O)O)cs3)c2C2CC2)cc1 [Analog 60] | – | – | – | – | < 4 | – |
| NS(=O)(=O)c1ccc(Cc2c(-c3cccc(-c4ccccc4)c3)nn(-c3nc(C(=O)O)cs3)c2CC2CC2)cc1 [Analog 63] | single digit μM | single digit μM | – | – | < 4 | IC50 (A673 cells [6]; A673, 2 h, read-out: A673 cells Lactate inh. IC50 ± SD): 0.517 ± 0.088 µM |

Like-named read-outs stand apart in the source and are kept apart here.
